## Yeast mating assay B: variants of the scFv Ab-14

Source: Li et al. 2023 (doi:10.1038/s41467-023-39022-2), MIT Lincoln Laboratory and A-Alpha Bio; data file from the FLAb repository.

Binding partner: SARS-CoV-2 spike HR2 peptide, sequence PDVDLGDISGINAS.

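The variants were designed computationally from a first round of random CDR variants and then made and measured. Their group label is 14L_En_HC (En: ensemble of fine-tuned language models; HC: hill climbing; a sequence that several methods proposed may carry one label only). Affinity was read by AlphaSeq, a pooled yeast mating assay with surface-displayed partners. The frequency of each diploid, read from paired DNA barcodes, reflects how well the two displayed proteins bind. Read counts were normalised to the haploid input and turned into Kd by a linear fit to BCL2-family pairs of known affinity, for each replicate. Each pool was mated in six replicate cultures.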

Parent scFv Ab-14: VH joined to VL by a (GGGGS)3 linker. Changes lie in the light chain CDRs alone.
VH: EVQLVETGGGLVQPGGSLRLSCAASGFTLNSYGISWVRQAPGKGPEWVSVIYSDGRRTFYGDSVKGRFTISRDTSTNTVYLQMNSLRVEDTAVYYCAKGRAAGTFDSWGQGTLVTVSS
VL: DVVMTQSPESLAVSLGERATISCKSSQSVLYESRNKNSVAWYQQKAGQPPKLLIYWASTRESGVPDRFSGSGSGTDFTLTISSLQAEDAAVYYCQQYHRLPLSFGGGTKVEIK

Each variant is given by its three light chain CDRs, as the data file delimits them; those of the parent are KSSQSVLYESRNKNSVA, WASTRES, QQYHRLPLS.
Values are log10 of the apparent Kd in nM; lower means stronger binding.
Replicates are averaged; those with no signal do not enter the mean.
A pair that was not seen in that replicate is written "ND"; this usually means weak binding, but a binder can also be missed.

MLSQLFMYGSRNYNSVA | QASTRES | QQYHRLPLI: 3.13, 1.10, 1.31, 1.68, 1.28, 2.00 (mean 1.75; controls 0 of 18).
TVSQVHEMLSRNKNSVA | DMNTREE | QQYDRLPLS: 0.47, 0.49, 0.84, 0.64, 0.49, 1.30 (mean 0.70; controls 0 of 18).
KIGGVTNGISRNKNSVA | EQSTRED | QQYNRLPLS: 0.18, 0.12, 0.13, 0.14, 0.20, -0.02 (mean 0.12; controls 0 of 18).
KFGNGVHVESIMSNSIA | QTSTREE | QQYDRLPLS: 0.50, 0.63, 0.82, 0.38, 0.44, 0.76 (mean 0.59; controls 1 of 18).
NVGQLMDGESRNRNSVA | HQSTRED | QHYHRLPLS: 1.04, 0.77, 1.00, 1.19, 0.98, 0.85 (mean 0.97; controls 0 of 18).
KLSQVTHSEHRIKNSIA | EMVTREK | QQYDRLPLS: 1.75, 1.78, 1.71, 1.47, 1.51, 1.30 (mean 1.59; controls 1 of 18).
MFSQLVYTGEKTRNAVA | QASTREN | QQYHHLPLS: 0.96, 0.44, 0.52, 0.44, 0.62, 0.62 (mean 0.60; controls 1 of 18).
MISDMGLHDSRLQNSVA | NNSTREA | QQYDRLPLS: 1.92, ND, ND, ND, ND, ND (controls 0 of 18).
NISESMYFQTRNKNNIA | EMSTRER | QHYHRLPLS: 2.14, 1.89, 1.25, 1.68, 1.09, 1.64 (mean 1.61; controls 0 of 18).
KLSISHQVESINKSNVA | EMVTRES | QQYDRLPLS: 2.62, 2.51, 2.40, 2.72, 2.20, 2.72 (mean 2.53; controls 0 of 18).
KLSQVTNSEHKVKNSIA | EMVTREE | QQYDRLPLE: 0.74, 0.75, 0.52, 0.71, 0.65, 0.96 (mean 0.72; controls 3 of 18).
TISDLMHSETRNVNNVA | DLVKREK | QQYHRLPLS: -0.10, -0.36, -0.53, -0.57, -0.62, -0.35 (mean -0.42; controls 0 of 18).
TISNSFMMENQFRNSVA | QASTRLN | QCYDRLPLS: ND, ND, ND, ND, ND, ND (controls 0 of 18).
NFTQMVLTGSTLRNSVA | HASTREE | QQYHRLPLI: 1.04, 0.67, 0.73, 0.39, 0.52, 0.54 (mean 0.65; controls 0 of 18).
MISQSFLIGMKAKNSVA | QTSTREE | QQYDRLPLS: 0.14, 0.30, 0.15, 0.38, 0.10, 0.46 (mean 0.25; controls 0 of 18).
KLTEMFQHTSKNKNNIA | ERSTREQ | QQYHHLPLS: 0.45, 0.25, 0.29, 0.35, 0.41, 0.54 (mean 0.38; controls 1 of 18).
KLSQLVGYESRNKSRVA | DNSTRES | QQYDRLPLS: 2.07, 1.86, 1.68, ND, 2.64, 3.42 (mean 2.33; controls 3 of 18).
MMSQMYEGLSTSKNPVA | QVSTREE | QQYHRLPLS: 0.34, 0.63, 0.07, 0.71, 0.00, 0.14 (mean 0.31; controls 0 of 18).
TLTQSMDMTSRNVNSVA | DLTTRGN | QQYHRLPLS: 0.63, 0.63, 0.32, 0.23, 0.43, 0.74 (mean 0.50; controls 0 of 18).
MFPQEVMYESHFKNNVA | QTSTREP | QQYDHLPLS: 0.52, 0.40, 0.41, 0.34, 0.26, 0.34 (mean 0.38; controls 3 of 18).
NLSISMLHESINKHSVA | EVRTRES | QQYDRLPLS: 1.56, 1.02, 0.90, 0.95, 0.88, 1.12 (mean 1.07; controls 1 of 18).
MISQMFEGLSTSKNPVA | QVSTREN | QQYHRLPLS: 2.25, 1.97, 3.12, ND, 3.54, 2.89 (mean 2.76; controls 0 of 18).
IISQVDAYLSRNTNSIA | DQTTRGS | QQYDRLPLS: 0.87, 1.02, 0.64, 0.99, 0.50, 1.22 (mean 0.87; controls 0 of 18).
KLSQFYRMESRNKNSVA | DNSTREK | QQYDRLPLS: ND, 2.93, ND, ND, ND, ND (controls 1 of 18).
MISDLTMMGSRNKNSVA | DLSTRGS | QQYHRLPLS: 1.65, 0.87, 1.01, 1.07, 1.23, 0.71 (mean 1.09; controls 2 of 18).
HILQNMTYESRNRNSVA | HQSTRED | QQYHSLPLS: 1.63, ND, 1.28, 1.46, 1.93, 1.67 (mean 1.59; controls 0 of 18).
NSSGPMMFESRNRNSVA | HASTREE | QQYERLPLS: 0.01, 0.66, 0.43, 0.07, 1.22, 0.45 (mean 0.47; controls 0 of 18).
KISQLVNFMGKNKNSVA | QMSTRES | QQYDRLPLS: 0.79, 0.31, 0.55, 0.25, 0.60, 0.63 (mean 0.52; controls 5 of 18).
KIGGVTNGISFSKNSVA | EQSTREN | QQYDRLPLS: 0.43, 0.16, 0.57, 0.10, 0.26, 0.76 (mean 0.38; controls 0 of 18).
KLREVQHVETKQKGNVA | DNSTRES | QDYYRLPLS: -0.05, -0.09, 0.03, -0.27, -0.28, -0.05 (mean -0.12; controls 0 of 18).
KIMQSLNYESFMKNSVA | GQETRER | QSYHRLPLS: ND, ND, ND, ND, 1.68, ND (controls 1 of 18).
KLSEIAHFESRKKNSVA | ENSTREA | QQYDHLPLS: 2.09, 2.90, 2.57, 2.36, 2.11, 2.30 (mean 2.39; controls 1 of 18).

The first 4 entries again:

CDR-L1,CDR-L2,CDR-L3,log10 Kd (nM) by replicate,"log10 Kd (nM), mean",signal with controls
MLSQLFMYGSRNYNSVA,QASTRES,QQYHRLPLI,"3.13, 1.10, 1.31, 1.68, 1.28, 2.00",1.75,0/18
TVSQVHEMLSRNKNSVA,DMNTREE,QQYDRLPLS,"0.47, 0.49, 0.84, 0.64, 0.49, 1.30",0.70,0/18
KIGGVTNGISRNKNSVA,EQSTRED,QQYNRLPLS,"0.18, 0.12, 0.13, 0.14, 0.20, -0.02",0.12,0/18
KFGNGVHVESIMSNSIA,QTSTREE,QQYDRLPLS,"0.50, 0.63, 0.82, 0.38, 0.44, 0.76",0.59,1/18

In the paper, a design with two or fewer of six values counts as a poor binder.
A sequence measured in both rounds can read differently, since the two assays cover different ranges.
The parent sequence was in this pool as ten entries: three were never detected, three once, and four in most replicates, with averages from 0.34 to 2.37.
Empty control strains, which show no peptide, gave a signal in 4% of pairings with all light chain designs; the median was 2.64 and 95% of these signals were weaker than 1.59. No background was subtracted. The control count says in how many pairings with the empty strains this scFv gave a signal.